Test results: PubChem BioAssay AID1346378 (National Center for Advancing Translational Sciences (NCATS), 2018)
Only a part is listed here, and it is no random draw. The source made the active and inactive calls. Rule as the data show it: active = activity change below about -50%; inconclusive = mostly about -30% to -49%; inactive = weaker than that.

Chains of the proteins cited; added tags and fusions are not shown.
UniProt Q9BTU6, whole entry: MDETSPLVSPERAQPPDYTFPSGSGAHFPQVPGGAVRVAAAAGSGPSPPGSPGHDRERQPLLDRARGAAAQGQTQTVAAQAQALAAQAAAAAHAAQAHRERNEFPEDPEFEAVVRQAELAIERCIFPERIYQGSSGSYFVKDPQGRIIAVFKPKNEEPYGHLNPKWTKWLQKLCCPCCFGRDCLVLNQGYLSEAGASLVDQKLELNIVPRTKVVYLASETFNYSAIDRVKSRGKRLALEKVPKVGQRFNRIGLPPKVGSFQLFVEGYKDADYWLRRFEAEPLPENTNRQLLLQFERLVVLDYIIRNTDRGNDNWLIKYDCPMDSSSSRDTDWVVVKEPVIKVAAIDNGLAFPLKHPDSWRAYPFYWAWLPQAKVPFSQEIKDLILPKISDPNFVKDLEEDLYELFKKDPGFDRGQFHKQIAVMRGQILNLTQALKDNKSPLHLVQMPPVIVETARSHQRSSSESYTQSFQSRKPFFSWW

target: Phosphatidylinositol 4-kinase type 2-alpha (Homo sapiens) (UniProt Q9BTU6); test: qHTS for small molecular inhibitors of PI4K2A; conditions: purified PI4K2A, ADP-Glo luminescence, 1 h; at 76.9 µM; active compounds read low;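 also: -100% = wells without enzyme as full effect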
Excerpt: The phosphatidylinositol 4-phosphate (PI4P) is emerging as a key regulator of lipid transfer in ER-membrane contact sites. The four different phosphatidylinositol 4-kinase (PI4K) enzymes generate PI4P in different membrane compartments supporting distinct cellular processes many of which are crucial for the maintenance of cellular integrity but also hijacked by intracellular pathogens. The goal of this screening project is to search for small molecular inhibitors of PI4K2A based on a high throughput screening strategy.The ADP-Glo assay was used as a starting point to develop a miniaturized version for HTS applications. To implement the HTS screen, the PI4K ADP-Glotrade mark Kinase assay (Promega, V9102) was miniaturized for the 1536-well format used at NCGC.
For the robotic screening, the ADP-Glo assay using the ADP-Glotrade mark Kinase Assay kit from Promega was miniaturized and optimized on 1536-well white solid bottom plates (Greiner Bio-one). The substrate, 1.2 mM PI, prepared in the assay buffer (40mM Tris pH7.5, 20mM MgCl2, 1mM EGTA, 0.4% Triton X-100, 0.5mM DTT, 0.5mg/ml BSA) and PI4K2A enzyme, diluted also in the assay buffer to 4ug/mL, were dispensed onto the plates in equal volumes (1microl/well), pinned with 23 nL/well tested compounds or control followed by dispensation of 1microl/well 300microM ATP. The plates were incubated for one hour. Then, 2 µL/well of ADP-Glo reagent was added and incubated for 40 minutes. Next, 4microL/well of Kinase Detection Buffer was added to the plates and incubated for additional 40 minutes. All incubation steps were performed at ambient temperature. The resulting luminescence signal was measured on Viewlux plate reader (PerkinElmer). Adenosine, a partial non-specific inhibitor, was used as a positive control at 100microM final concentration to assess the assay's quality and plate-to-plate reproducibility. We also used "no enzyme" control to gauge the assay's maximal potential inhibition (IC100).

Structure (SMILES) | activity change, negative = inhibition
O=c1[nH]c2ccccc2n1C1CCN(C(c2cccs2)c2nnnn2C2CCCC2)CC1 (centres undefined) | inactive: 2.46%
O=C(O)c1cccc(Nc2c([N+](=O)[O-])cc([N+](=O)[O-])cc2[N+](=O)[O-])c1 | inactive: -0.65%
CCc1cc(C(=O)NCC2(N3CCCCC3)CCCCC2)sc1C | inactive: -3.06%
O=C(OC1CN2CCC1CC2)C1c2ccccc2C=Cc2ccccc21 (centres undefined) | inactive: 0.912%
CCCCn1nnnc1C(c1cccc(OC)c1OC)N1CCC(n2c(=O)[nH]c3ccccc32)CC1 (centres undefined) | inactive: -5.06%
CCOC(=O)N1CCC(Nc2ccc(C)cc2)CC1 | inactive: 1.66%
COc1cccc(C(c2nnnn2C(C)(C)C)N2CCC(n3c(=O)[nH]c4ccccc43)CC2)c1OC (centres undefined) | inactive: 0.085%
N/C(=N\O)c1c(N)no[n+]1[O-] | inactive: -4.54%
NC(=O)C1(Nc2ccccc2)CCN(Cc2ccccc2)CC1 | inactive: -1.86%
CCC(=O)N(c1ccccc1)C1CCNCC1 | inactive: -3.89%
O=c1[nH]c2ccccc2n1C1CCN(C(c2cccs2)c2nnnn2C2CCCCC2)CC1 (centres undefined) | inactive: -1.84%
O=c1[nH]c2ccccc2n1C1CCN(C(c2ccnc3ccccc23)c2nnnn2C2CCCC2)CC1 (centres undefined) | inactive: -1.55%
COc1ccc(C(=O)NCC2(N3CCOCC3)CCCCC2)cc1OC | inactive: 1.88%
COc1cc(C(=O)NCC2(N3CCOCC3)CCCCC2)cc(OC)c1C | inactive: -0.529%
CCCCn1nnnc1C(c1ccccc1)N1CCC(n2c(=O)[nH]c3ccccc32)CC1 (centres undefined) | inactive: -6.5%
O=C(NCC1(N2CCOCC2)CCCCC1)c1cc(Br)ccc1Cl | inactive: -4.12%
CC(C)(C)n1nnnc1C(c1cccc2ccccc12)N1CCC(n2c(=O)[nH]c3ccccc32)CC1 (centres undefined) | inactive: -2.98%
CN(C)C1(CNC(=O)c2cccc(C#N)c2)CCCCC1 | inactive: 9.09%
CCCN1CCC(Nc2cc(OC)cc(OC)c2)CC1 | inactive: -6.79%
O=c1[nH]c2ccccc2n1C1CCN(C(c2ccccc2)c2nnnn2C2CCCC2)CC1 (centres undefined) | inactive: 0.385%

Structure (SMILES) | activity change, negative = inhibition
O=C(NCC1(N2CCOCC2)CCCCC1)c1ccccc1 | inactive: 1.24%
Cc1cc(N(CCCl)CCCl)ccc1C=O | inactive: -1.25%
c1ccc(CN2CCC(Nc3ccccc3)CC2)cc1 | inactive: 0.427%
CCOC(=O)C(CC)C1=NC(C)(C)Cc2ccccc21.O=[N+]([O-])c1cc([N+](=O)[O-])c(O)c([N+](=O)[O-])c1 (centres undefined) | inactive: 3.81%
O=C(NCC1(N2CCOCC2)CCCCC1)c1ccccc1[N+](=O)[O-] | inactive: -12.9%
N#Cc1ccc(C(=O)NCC2(N3CCCCC3)CCCCC2)cc1 | inactive: -0.855%
CC(C)(C)OC(=O)N1CCC(N(C(=O)c2ccccc2)c2ccc(Cl)cc2)CC1 | inactive: -4.54%
O=C(NCC1(N2CCOCC2)CCCCC1)c1ccc([N+](=O)[O-])cc1 | inactive: -1.83%
Cc1ccccc1C(=O)NCC1(N(C)C)CCCCC1 | inactive: -4.1%
CN(C)c1ccc(C(=O)NCC2(N3CCCCC3)CCCCC2)cc1 | inactive: 5.14%
Cn1c(=O)[nH]cc(N(CCCl)CCCl)c1=O | active: -55.5%
O=C(NCC1(N2CCCCC2)CCCCC1)c1ccco1 | inactive: 4.37%
CC(C)(C)c1ccc(C(=O)NCC2(N3CCOCC3)CCCCC2)cc1 | inactive: -3.17%
COc1ccc(C(c2nnnn2C2CCCCC2)N2CCC(n3c(=O)[nH]c4ccccc43)CC2)cc1 (centres undefined) | inactive: -3.82%
CCN1CCC(Nc2cccc(F)c2)CC1 | inactive: 1.24%
CC(C)(C)n1nnnc1C(c1ccnc2ccccc12)N1CCC(n2c(=O)[nH]c3ccccc32)CC1 (centres undefined) | inactive: 1.57%
Cc1ccccc1NC1(C#N)CCN(Cc2ccccc2)CC1 | inactive: 0.586%
Fc1ccccc1NC1CCN(Cc2ccccc2)CC1 | inactive: 0.849%
Cc1ccc(Nc2c([N+](=O)[O-])cc([N+](=O)[O-])cc2[N+](=O)[O-])cc1 | inactive: -7.17%
Cc1ccc(C(=O)NCC2(N3CCCCC3)CCCCC2)o1 | inactive: -1.38%

Structure (SMILES) | activity change, negative = inhibition
Cc1ccc(NC2(C#N)CCN(Cc3ccccc3)CC2)cc1 | inactive: 1.09%
CCC(c1nnnn1C1CCCCC1)N1CCC(n2c(=O)[nH]c3ccccc32)CC1 (centres undefined) | inactive: 3.17%
CN(C)C1(CNC(=O)c2ccc(C(C)(C)C)cc2)CCCCC1 | inactive: 0.135%
COc1cccc(C(c2nnnn2C2CCCCC2)N2CCC(n3c(=O)[nH]c4ccccc43)CC2)c1OC (centres undefined) | inactive: 14.6%
CC(=O)N(c1ccccc1)C1CCNCC1 | inactive: -2.28%
COc1cc(OC)cc(C(=O)NCC2(N3CCCCC3)CCCCC2)c1 | inactive: 3.78%
O=c1[nH]c2ccccc2n1C1CCN(C(c2ccnc3ccccc23)c2nnnn2C2CCCCC2)CC1 (centres undefined) | inactive: 1.49%
CN1CCC(Nc2ccc(Cl)cc2)CC1 | inactive: -0.397%
COc1cccc(C(=O)N(c2cc(C)cc(C)c2)C2CCN(C(=O)OC(C)(C)C)CC2)c1 | inactive: -0.425%
COc1cc(C(=O)NCC2(N3CCOCC3)CCCCC2)cc(OC)c1OC | inactive: -1.53%
COc1cc(OC)cc(C(=O)NCC2(N3CCOCC3)CCCCC2)c1 | inactive: -1.15%
COc1cccc(C(c2nnnn2C2CCCC2)N2CCC(n3c(=O)[nH]c4ccccc43)CC2)c1OC (centres undefined) | inactive: -3.08%
CCC(CO)(C(=O)OC1CN2CCC1CC2)c1ccccc1 (centres undefined) | inactive: -10.3%
NN(c1ccccc1)C1CCN(CCc2ccccc2)CC1 | inactive: -0.88%
O=C(O)C1(Nc2ccccc2)CCN(Cc2ccccc2)CC1 | inactive: -2.13%
CC(C)(C)OC(=O)N1CCC(Nc2ccccc2)CC1 | inactive: -2.13%
O=c1[nH]c2ccccc2n1C1CCN(C(c2cc3ccccc3o2)c2nnnn2C2CCCC2)CC1 (centres undefined) | inactive: 0.776%
CCCOc1ccc(C(=O)NCC2(N(C)C)CCCCC2)cc1 | inactive: 0.75%
CN1CCC(Nc2ccc(F)c(Cl)c2)CC1 | inactive: -2.7%
